These results are taken from PubChem BioAssay AID652054 (National Center for Advancing Translational Sciences (NCATS), 2013).

Amino acid sequences for entries named in this document (tags omitted).
UniProt P35462, whole entry, looked up: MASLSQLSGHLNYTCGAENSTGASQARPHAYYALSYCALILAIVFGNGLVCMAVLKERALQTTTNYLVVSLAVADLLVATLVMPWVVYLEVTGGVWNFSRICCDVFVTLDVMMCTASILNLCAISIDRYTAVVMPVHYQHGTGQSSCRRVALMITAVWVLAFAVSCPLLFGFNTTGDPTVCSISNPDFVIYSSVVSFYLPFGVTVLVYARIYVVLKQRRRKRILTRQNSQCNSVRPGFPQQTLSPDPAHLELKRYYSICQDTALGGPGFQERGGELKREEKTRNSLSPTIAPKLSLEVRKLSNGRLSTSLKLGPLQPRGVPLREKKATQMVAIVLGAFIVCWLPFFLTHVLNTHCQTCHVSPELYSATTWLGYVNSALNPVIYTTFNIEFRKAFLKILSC

This is a selection; strong and weak results do not stand in their true shares. Inconclusive results are not listed. Activity calls are given as the source filed them. Cut-off read from the data, not from the text of the source: active = max response below about -50%; inconclusive = no clear call, values can overlap the other calls; inactive = above that.
% is set by controls: 0 for no effect and ±100 for the full control effect.

The experiment concerns the target D(3) dopamine receptor (Homo sapiens) (UniProt P35462). The experiment in a line: qHTS of D3 Dopamine Receptor Antagonist: qHTS. The note with it: D3R cells, DiscoveRx beta-arrestin luminescence, antagonist mode; stronger effect = lower value. From the text:
D3 DARs represent a very important target for the treatment of several neuropsychiatric disorders. Indeed, one of the most promising therapeutic applications for the D3 DAR is in the area of addiction and related disorders. […] These findings have been observed with a number of addictive substances including cocaine, amphetamine, nicotine, and alcohol. […] Antagonism of the D3 DAR may also be therapeutic in the treatment of schizophrenia or psychosis. […] Since the D3 DAR is expressed in areas of the CNS associated with the control of mood and emotion, it has been hypothesized that selective antagonism of the D3 DAR may be effective in treating psychosis without inducing the motor side effects typically seen with D2 DAR antagonists.
This part of the project aims to discover novel antagonist.
NIH Chemical Genomics Center [NCGC]
NIH Molecular Libraries Probe Centers Network [MLPCN]
Assay Submitter (PI): David Sibley, NINDS
Freshly passaged cells are plated in 1536 well white, solid bottom plates at a density of 1500 cells/well in 3microl of complete media. After an overnight incubation at 37 degrees C in 5% CO2, cells are loaded with 23nl of test compound from the compound library (as well as dopamine controls) using a 1536 pintool and incubated at 37 degrees C for 90 minutes. Two microliters of DiscoveRx reagent is then added to all cells, and they are incubated for an additional 30 - 60 minutes at room temperature. Following incubation, luminescence is measured on a ViewLux CCD-based luminometer reader using a 20 sec exposure time.
For `CS(=O)(=O)c1cc([N+](=O)[O-])c2no[n+]([O-])c2c1`, the max response, negative = inhibition was inactive: -10.6%.
For `Nc1ccccc1[As](=O)(O)c1ccccc1`, the max response, negative = inhibition was inactive: 1.55%.
In the case of `O=C(O)COc1ccc([As](=O)(O)O)cc1[N+](=O)[O-]`, the max response, negative = inhibition is inactive: 1.78%.
For `Nc1cccc2c([As](=O)(O)O)cccc12`, the max response, negative = inhibition was inactive: -0.981%.
For `Cc1ccc(NCCc2c([N+](=O)[O-])cc([N+](=O)[O-])cc2[N+](=O)[O-])cc1` the value was inactive: -3.01%.
Take `CCCOP(=S)(Nc1nc(N)cc(=O)[nH]1)OCCC`: the max response, negative = inhibition was inactive: -3.85%.
On to `CCOP(=O)(Nc1cccc2ccccc12)OCC`, for which the max response, negative = inhibition was inactive: -14.8%.
For `COc1cc(C2NCCC3(OCCO3)C2(C)C)cc(OC)c1OC` (stereo unspecified), the max response, negative = inhibition is active: -61.3%.
`O=C(OC1CN2CCC1CC2)c1ccc(Cl)cc1` (stereo unspecified): the max response, negative = inhibition was inactive: 15.1%.
As for `CS(=O)(=O)c1ccc(Cl)c(NC(=O)COC(=O)C(O)(c2ccccc2)c2ccccc2)c1`, the max response, negative = inhibition is inactive: -11.7%.
For the molecule `O=[As](O)(O)c1cccnc1`, the max response, negative = inhibition was inactive: 4.42%.
With `COc1cc(C(=O)NCC2(N3CCOCC3)CCCCC2)cc(Cl)c1OC(C)C`, the max response, negative = inhibition was inactive: -5.04%.
For `Cc1cccc(OCC(=O)OC2CN3CCC2CC3)c1` (stereo unspecified) the value was inactive: -16.1%.
Regarding `O=[As](O)(c1cccc(O)c1)c1cccc(O)c1`, the max response, negative = inhibition was inactive: 4.53%.
In the case of `COc1ccccc1CNC(=O)COC(=O)C(O)(c1ccccc1)c1ccccc1`, the max response, negative = inhibition is inactive: 2%.
Take `CC(C)/C=N\N=C(\N)N[N+](=O)[O-]`: the max response, negative = inhibition was inactive: 6.37%.
For `CN(C(=O)Cc1ccc(Cl)c(Cl)c1)[C@@H]1CCCC[C@H]1N1CCCC1`, the max response, negative = inhibition is inactive: 0%.
As to `CC1(CBr)Cn2c(nc3ccccc3c2=O)S1` (stereo unspecified), the max response, negative = inhibition was inactive: -21.9%.
For `CCOP(=O)(NC(=NC(C)c1ccccc1)NC(C)c1ccccc1)OCC` (stereo unspecified) the value was inactive: -0.0553%; for `O=P1(Nc2ccccn2)COc2ccccc2OC1`, inactive: -6.64%.
The figure for `CCC1=CC2Cc3nc4ccc(Cl)cc4c(N)c3C(C1)C2` (stereo unspecified) is inactive: 17.2%.
For `CCOP(=O)(Nc1ccc(C)cn1)OCC`, the max response, negative = inhibition is inactive: -23.4%.
For the molecule `CC(C)(C)C(=O)NC(Sc1ncccn1)C(Cl)(Cl)Cl` (stereo unspecified), the max response, negative = inhibition is inactive: -0.863%.
On to `O=P1(N(CCCl)CCCl)NCCC(C(F)(F)F)O1` (stereo unspecified), for which the max response, negative = inhibition is inactive: 10.4%.
Turning to `Clc1n[nH]nc1-c1nn[nH][15n]1`, the max response, negative = inhibition is inactive: -15.2%.
As for `Cc1ccc(S(=O)(=O)N(CCCN)CCCc2c(C)nc(N)[nH]c2=O)cc1`, the max response, negative = inhibition is inactive: 0%.
With `O=P1(Nc2ncccn2)COc2ccccc2OC1`, the max response, negative = inhibition is inactive: 14.4%.
Consider `Nc1cccc([As](=O)(O)c2ccccc2)c1`, for which the max response, negative = inhibition is inactive: 1.21%.
Turning to `O=[As](O)(c1cccs1)c1cccs1`, the max response, negative = inhibition was inactive: 36.7%.
On to `Cc1ccc(OCC(=O)OC2CN3CCC2CC3)cc1` (stereo unspecified), for which the max response, negative = inhibition is inactive: -0.0233%.
Regarding `O=P1(Nc2ccc(Br)cn2)COc2ccccc2OC1`, the max response, negative = inhibition is inactive: 0.129%.
For `NS(=O)(=O)c1cccc(NC(=O)COC(=O)C(O)(c2ccccc2)c2ccccc2)c1` the value was inactive: 5.96%; for `CC1CCC(C(C)C)C(OP(=O)(Nc2ccccn2)c2ccccc2)C1` (stereo unspecified), inactive: 12%.
On to `Cc1ccc(C(=O)OC2CN3CCC2CC3)cc1` (stereo unspecified), for which the max response, negative = inhibition is inactive: 16.2%.
In the case of `Cc1nn(-c2ccccc2)c2c1P(=O)(N1CCOCC1)N(C)C(c1ccccc1)=N2` (stereo unspecified), the max response, negative = inhibition was inactive: 16.6%.
Regarding `CN(C)C1(CNC(=O)c2ccc(S(C)(=O)=O)cc2)CCCCC1`, the max response, negative = inhibition was inactive: -3.63%.
For `CCCC1OP(=O)(Nc2ccccc2)OCC1CC` (stereo unspecified), the max response, negative = inhibition was inactive: 5.25%.
For the molecule `O=C(/C=C/c1ccccc1)OC1CN2CCC1CC2` (stereo unspecified), the max response, negative = inhibition is inactive: 12.1%.
For `O=[As](O)(c1ccccc1)c1ccc(O)cc1` the value was inactive: 10%; for `O=[N+]([O-])c1ccc(O)c(/C=N/Nc2ccc([N+](=O)[O-])cc2[N+](=O)[O-])c1`, inactive: 17.6%; for `O=[N+]([O-])c1ncn(CCn2cnc([N+](=O)[O-])n2)n1`, inactive: -8.84%.
Regarding `CC(=O)NC(SC(=S)N(C)C)C(Cl)(Cl)Cl` (stereo unspecified), the max response, negative = inhibition is inactive: -4.89%.
In the case of `O=C(OC1CN2CCC1CC2)c1cccc(Cl)c1` (stereo unspecified), the max response, negative = inhibition is inactive: -6.92%.
On to `C(Cc1nn[nH]n1)Cc1nn[nH]n1`, for which the max response, negative = inhibition is inactive: 13.4%.
Regarding `Nc1ccc([As](=O)(O)c2ccc([N+](=O)[O-])cc2)cc1`, the max response, negative = inhibition was inactive: 2.14%.
For `O=P(Nc1ccccn1)(c1ccc(Br)cc1)c1ccc(Br)cc1`, the max response, negative = inhibition is inactive: 13.9%.
For the molecule `CN(C)C1(CNC(=O)c2ccc(Cl)c(S(N)(=O)=O)c2)CCCCC1`, the max response, negative = inhibition was inactive: 3.1%.
`COc1ccc(N)c([N+](=O)[O-])c1[N+](=O)[O-]`: the max response, negative = inhibition was inactive: -25.6%.
Regarding `Nc1ccc(CCCCOc2ccccc2)cc1`, the max response, negative = inhibition was active: -78.8%.
For `C[C@H]1OP(=O)(Oc2ccccc2)[C@H](O)[C@H](O)[C@H]1N=[N+]=[N-]` (stereo partly specified) the value was inactive: 2.02%; for `O=P(Nc1nc2ccccc2s1)(c1ccccc1)c1ccccc1`, inactive: 3.6%.
